Reference: ChEMBL document CHEMBL4414606, “Bioactive Streptoglutarimides A-J from the Marine-Derived Streptomyces sp. ZZ741” (J Nat Prod, 2019)

System: Staphylococcus aureus
Assay: Antibacterial activity against methicillin resistant Staphylococcus aureus assessed as reduction in bacterial growth incubated for 12 hrs by microdilution method
Format: functional

Work on GENTAMICIN yielded an MIC of 0.5 µg/mL.
